US11981921B2, “TIL expansion processes using specific cytokine combinations and/or AKTi treatment” (Iovance Biotherapeutics, Inc., priority 2022, dated 2024)

Legend:
[1] = system: TIL populations; experiment: pre-REP stimulation of TIL populations (B-cells and T-cells) with CD40L; type: cell-based
Procedure: As a result, pre-REP stimulation studies were designed to attempt to enhance the B-cell response in TIL populations. Briefly, frozen tumor digests were cultured by standard protocols (see, the Examples) either in the presence or absence of CD40L beginning on Day 0 and continuing for 48 h. Cells are then assayed for specific tumor recognition, with those responding populations undergoing a second expansion in the REP phase.

[2] = 1 mg vial, lot 10200121 (Cellgenix); cited from earlier work
[3] = after 14 days of expansion, vs control

For “CD40L: CD40 ligand, TNF superfamily protein (SEQ ID NO: 238), used as CD40 agonist”, the “mean increase of CD80+CD86+ B-cell population” value ([1]; 48 h treatment, compared to control TIL populations, flow cytometry) was “roughly 20 fold”, the “markers of exhaustion on post-REP T-cells” value [1, 3] was “No significant difference” and the “relative size of CD39−CD69− subpopulation post-REP” value [1, 3] was “no significant difference”. The “viability and expansion from cryopreserved samples” value ([1]; compared to standard expansion protocols without stimulation) was “higher viability and greater expansion”, the “CD8+ T-cell population” value ([1]; pre-REP) was “without diminishing” and the “amount of effector memory T-cells (TEM cells)” value ([1]; pre-REP) was “significant increase”. For the same substance, the “central memory T-cells or CD45+ TEM cells” value ([1]; pre-REP) was “no similar increase”, the “number of CD4+ T-cells” value ([1]; pre-REP) was “significant increase” and the “proportion of CD39-CD69− T-cells” value ([1]; pre-REP, relative to control) was “significant increase”. The “robustness of pre-REP expansion on average” value ([1]; vs control conditions) was “significantly more robust” and the “likelihood of pre-REP TIL populations to expand” value ([1]; vs control conditions, overall cell counts) was “three times more likely to expand”.

In the case of “rhIL-2: purified, lyophilized recombinant human interleukin-2”, the specific activity [2] is listed as 25×10^6 IU/mg.
